Test results taken from PubChem BioAssay AID651644 (National Center for Advancing Translational Sciences (NCATS), 2012).
The list shows a part of the results, in another mix than the full data. Calls of active or inactive are those of the source. The call rests on the fitted dose curve; in most records, active means well fitted falling curve with a large enough effect; inconclusive means small, poorly fitted or top-dose-only effect; inactive means no such curve, though single readings can be large or run the other way.

Experiment: qHTS Assay for Inhibitors of the HIV-1 protein Vpr; further: nearly all actives have a fitted effect of over 50% in size
Settings: S. pombe RE007 Vpr strain, BacTiter-Glo ATP luminescence, 24 h; at 92.2 µM (top of the series)
On the % scale 0 is the no-effect control and ±100 the full control effect.

| Compound | activity change, negative = less growth |
| --- | --- |
| CCC(=O)N(c1ccccc1)C1(COC)CCN(CCc2cccs2)CC1 | inactive: 0.863% |
| CCC(=O)N(c1ccccc1)C1(COC)CCN(CCn2nnn(CC)c2=O)CC1 | inactive: -4.45% |
